Test results reported in US11466067B2 (priority 2019, dated 2022).

Legend:
Conditions in all cases: mouse, in vivo
IL-1Ra = tested on: IL-1Ra; parameters: species or system mice
circulating cytokines = tested on: circulating cytokines
[1] = tested on: oxazolone-induced colitis

With `Nc1ccc(O)c(C(=O)O)c1` [5-ASA, 5-aminosalicylic acid, reference compound] the “circulating IL-1Ra” value (IL-1Ra) was “not significantly altered”, the “oxazolone induction of plasma IL-6 and IL-23” value (circulating cytokines) was “Suppression of the trend” and the “histopathological severity score of colon” value [1] was “but not 5-ASA treatment”.
